Assay results published in patent US20160024487.

Experiments:
[1] = system: Lys(Dnp)-ATNATFSPRIVGG-Lys(Abz)
[2] = system: Lys(Dnp)-ATNATQRPRIVGG-Lys(Abz)
[3] = system: Lys(Dnp)-ATNATX4X3PRIVGG-Lys(Abz), X4 = G, X3 = M
[4] = system: Lys(Dnp)-ATNATHTPRIVGG-Lys(Abz)
[5] = system: Lys(Dnp)-TVELQGVVPRIVGG-Lys(Abz)
[6] = system: Lys(Dnp)-ATNATQIPRIVGG-Lys(Abz)
[7] = system: Lys(Dnp)-NESTTKIKPRIVGG-Lys(Abz)
[8] = system: Lys(Dnp)-ATNATVHPRIVGG-Lys(Abz)
[9] = system: Lys(Dnp)-ATNATGRPRIVGG-Lys(Abz)
[10] = system: Lys(Dnp)-ATNATIQPRIVGG-Lys(Abz)
[11] = system: Lys(Dnp)-ATNATX4X3PRIVGG-Lys(Abz), X4 = W, X3 = I
[12] = system: Lys(Dnp)-ATNATLIPRIVGG-Lys(Abz)
[13] = system: Lys(Dnp)-ATNATX4X3PRIVGG-Lys(Abz), X4 = V, X3 = D
[14] = system: Lys(Dnp)-ATNATMGPRIVGG-Lys(Abz)
[15] = system: Lys(Dnp)-ATNATFGPRIVGG-Lys(Abz)
[16] = system: Lys(Dnp)-ATNATIFPRIVGG-Lys(Abz)
[17] = system: Lys(Dnp)-ATNATX4X3PRIVGG-Lys(Abz), X4 = H, X3 = Q
[18] = system: Lys(Dnp)-ATNATQHPRIVGG-Lys(Abz)
[19] = system: Lys(Dnp)-ATNATX4X3PRIVGG-Lys(Abz), X4 = Y, X3 = V
[20] = system: Lys(Dnp)-ATNATLYPRIVGG-Lys(Abz)
[21] = system: Lys(Dnp)-ATNATDIPRIVGG-Lys(Abz)
[22] = system: Lys(Dnp)-ATNATNFPRIVGG-Lys(Abz)
[23] = system: Lys(Dnp)-ATNATVSPRIVGG-Lys(Abz)
[24] = system: Lys(Dnp)-ATNATIGPRIVGG-Lys(Abz)
[25] = system: Lys(Dnp)-ATNATTYPRIVGG-Lys(Abz)
[26] = system: Lys(Dnp)-ATNATX4X3PRIVGG-Lys(Abz), X4 = G, X3 = F
[27] = system: Lys(Dnp)-ATNATHHPRIVGG-Lys(Abz)
[28] = system: Lys(Dnp)-ATNATYYPRIVGG-Lys(Abz)
[29] = system: Lys(Dnp)-ATNATYFPRIVGG-Lys(Abz)
[30] = system: Lys(Dnp)-ATNATIMPRIVGG-Lys(Abz)
[31] = system: Lys(Dnp)-ATNATX4X3PRIVGG-Lys(Abz), X4 = Q, X3 = M
[32] = system: Lys(Dnp)-ATNATWAPRIVGG-Lys(Abz)
[33] = system: Lys(Dnp)-ATNATSWPRIVGG-Lys(Abz)
[34] = system: Lys(Dnp)-ATNATNTPRIVGG-Lys(Abz)
[35] = system: Lys(Dnp)-ATNATPWPRIVGG-Lys(Abz)
[36] = system: Lys(Dnp)-ATNATGSPRIVGG-Lys(Abz)
[37] = system: Lys(Dnp)-ATNATMMPRIVGG-Lys(Abz)
[38] = system: Lys(Dnp)-ATNATPFPRIVGG-Lys(Abz)
[39] = system: Lys(Dnp)-ATNATGAPRIVGG-Lys(Abz)
[40] = system: Lys(Dnp)-ATNATX4X3PRIVGG-Lys(Abz), X4 = G, X3 = H
[41] = system: Lys(Dnp)-ATNATX4X3PRIVGG-Lys(Abz), X4 = H, X3 = K

In the case of Human plasma purified α-thrombin, the FIIa kcat/KM [1] is reported as 9900 M⁻¹ s⁻¹, the Specificity Ratio (FIIa/FXa) [1] is reported as 51 and the kcat/KM [1] is reported as 9900 M⁻¹ s⁻¹. It also gave an FIIa kcat/KM [2] of 9600 M⁻¹ s⁻¹, a Specificity Ratio (FIIa/FXa) [2] of 15 and a kcat/KM [2] of 9600 M⁻¹ s⁻¹. For the same substance, the FIIa kcat/KM [3] was 1200 M⁻¹ s⁻¹, the Specificity Ratio (FIIa/FXa) [3] was 23 and the kcat/KM [4] was 1500 M⁻¹ s⁻¹. It also gave an FIIa kcat/KM [5] of 12000 M⁻¹ s⁻¹, a Functional Selectivity (Specificity*FIIa kcat/KM) [5] of 1.3e+06 and a Specificity Ratio (FIIa/FXa) [5] of 114. It also gave a kcat/KM [5] of 12000 M⁻¹ s⁻¹, an FIIa kcat/KM [6] of 7900 M⁻¹ s⁻¹ and a Specificity Ratio (FIIa/FXa) [6] of 13. For the same substance, the kcat/KM [6] was 7900 M⁻¹ s⁻¹, the FIIa kcat/KM [7] was 20000 M⁻¹ s⁻¹ and the Functional Selectivity (Specificity*FIIa kcat/KM) [7] was 1.1e+07. The Specificity Ratio (FIIa/FXa) [7] was 559, the FIIa kcat/KM [8] was 13000 M⁻¹ s⁻¹ and the Functional Selectivity (Specificity*FIIa kcat/KM) [8] was 2.5e+06. The kcat/KM [8] was 13000 M⁻¹ s⁻¹, the kcat/KM [9] was 2700 M⁻¹ s⁻¹ and the FIIa kcat/KM [10] was 44000 M⁻¹ s⁻¹. It also gave a Functional Selectivity (Specificity*FIIa kcat/KM) [10] of 1.2e+06, a kcat/KM [10] of 44000 M⁻¹ s⁻¹ and an FIIa kcat/KM [11] of 1900 M⁻¹ s⁻¹. It also gave a Specificity Ratio (FIIa/FXa) [11] of 10, an FIIa kcat/KM [12] of 34000 M⁻¹ s⁻¹ and a Functional Selectivity (Specificity*FIIa kcat/KM) [12] of 2.7e+06. The kcat/KM [12] was 34000 M⁻¹ s⁻¹, the FIIa kcat/KM [13] was 1100 M⁻¹ s⁻¹ and the Specificity Ratio (FIIa/FXa) [13] was 16. The FIIa kcat/KM [14] was 5900 M⁻¹ s⁻¹, the Functional Selectivity (Specificity*FIIa kcat/KM) [14] was 640000 and the kcat/KM [14] was 5900 M⁻¹ s⁻¹. It also gave an FIIa kcat/KM [15] of 14000 M⁻¹ s⁻¹, a Functional Selectivity (Specificity*FIIa kcat/KM) [15] of 1.8e+06 and a kcat/KM [15] of 14000 M⁻¹ s⁻¹. For the same substance, the FIIa kcat/KM [16] was 13000 M⁻¹ s⁻¹, the Functional Selectivity (Specificity*FIIa kcat/KM) [16] was 1.3e+06 and the kcat/KM [16] was 13000 M⁻¹ s⁻¹. The FIIa kcat/KM [17] was 1800 M⁻¹ s⁻¹, the Specificity Ratio (FIIa/FXa) [17] was 11 and the FIIa kcat/KM [18] was 7300 M⁻¹ s⁻¹. It also gave a Specificity Ratio (FIIa/FXa) [18] of 13, a kcat/KM [18] of 7300 M⁻¹ s⁻¹ and an FIIa kcat/KM [19] of 1700 M⁻¹ s⁻¹. It also gave a Specificity Ratio (FIIa/FXa) [19] of 35, an FIIa kcat/KM [20] of 21000 M⁻¹ s⁻¹ and a Functional Selectivity (Specificity*FIIa kcat/KM) [20] of 2.7e+06. It also gave a kcat/KM [20] of 21000 M⁻¹ s⁻¹, an FIIa kcat/KM [21] of 30 M⁻¹ s⁻¹ and a Functional Selectivity (Specificity*FIIa kcat/KM) [21] of 22. For the same substance, the Specificity Ratio (FIIa/FXa) [21] was 1, the kcat/KM [22] was 780 M⁻¹ s⁻¹ and the Functional Selectivity (Specificity*FIIa kcat/KM) [23] was 650000. The FIIa kcat/KM [24] was 8600 M⁻¹ s⁻¹, the Specificity Ratio (FIIa/FXa) [24] was 51 and the kcat/KM [24] was 8600 M⁻¹ s⁻¹. For the same substance, the FIIa kcat/KM [25] was 1400 M⁻¹ s⁻¹, the Specificity Ratio (FIIa/FXa) [25] was 60 and the kcat/KM [25] was 1400 M⁻¹ s⁻¹. The FIIa kcat/KM [26] was 1200 M⁻¹ s⁻¹, the Specificity Ratio (FIIa/FXa) [26] was 33 and the FIIa kcat/KM [27] was 2000 M⁻¹ s⁻¹. The Specificity Ratio (FIIa/FXa) [27] was 78, the FIIa kcat/KM [28] was 3800 M⁻¹ s⁻¹ and the Specificity Ratio (FIIa/FXa) [28] was 79. It also gave a kcat/KM [28] of 3800 M⁻¹ s⁻¹, an FIIa kcat/KM [29] of 2600 M⁻¹ s⁻¹ and a Specificity Ratio (FIIa/FXa) [29] of 77. The kcat/KM [29] was 2600 M⁻¹ s⁻¹, the FIIa kcat/KM [30] was 41000 M⁻¹ s⁻¹ and the Functional Selectivity (Specificity*FIIa kcat/KM) [30] was 820000. It also gave a kcat/KM [30] of 41000 M⁻¹ s⁻¹, an FIIa kcat/KM [31] of 8100 M⁻¹ s⁻¹ and a Specificity Ratio (FIIa/FXa) [31] of 4. It also gave an FIIa kcat/KM [32] of 13000 M⁻¹ s⁻¹, a Functional Selectivity (Specificity*FIIa kcat/KM) [32] of 4.2e+06 and a kcat/KM [32] of 13000 M⁻¹ s⁻¹. For the same substance, the kcat/KM [33] was 1500 M⁻¹ s⁻¹, the kcat/KM [34] was 870 M⁻¹ s⁻¹ and the FIIa kcat/KM [35] was 27000 M⁻¹ s⁻¹. The Functional Selectivity (Specificity*FIIa kcat/KM) [35] was 620000, the Specificity Ratio (FIIa/FXa) [35] was 21 and the kcat/KM [35] was 27000 M⁻¹ s⁻¹. It also gave a kcat/KM [36] of 1300 M⁻¹ s⁻¹, an FIIa kcat/KM [37] of 28000 M⁻¹ s⁻¹ and a Functional Selectivity (Specificity*FIIa kcat/KM) [37] of 760000. The kcat/KM [37] was 28000 M⁻¹ s⁻¹, the Functional Selectivity (Specificity*FIIa kcat/KM) [38] was 1.2e+06 and the kcat/KM [39] was 950 M⁻¹ s⁻¹. The FIIa kcat/KM [40] was 1200 M⁻¹ s⁻¹, the Specificity Ratio (FIIa/FXa) [40] was 21 and the FIIa kcat/KM [41] was 1200 M⁻¹ s⁻¹. For the same substance, the Specificity Ratio (FIIa/FXa) [41] was 43.
